Biological target: T1, 3-hydroxy-3-methylglutaryl-coenzyme A reductase (Homo sapiens, UniProt P04035)
T1 sequence (P04035 whole entry): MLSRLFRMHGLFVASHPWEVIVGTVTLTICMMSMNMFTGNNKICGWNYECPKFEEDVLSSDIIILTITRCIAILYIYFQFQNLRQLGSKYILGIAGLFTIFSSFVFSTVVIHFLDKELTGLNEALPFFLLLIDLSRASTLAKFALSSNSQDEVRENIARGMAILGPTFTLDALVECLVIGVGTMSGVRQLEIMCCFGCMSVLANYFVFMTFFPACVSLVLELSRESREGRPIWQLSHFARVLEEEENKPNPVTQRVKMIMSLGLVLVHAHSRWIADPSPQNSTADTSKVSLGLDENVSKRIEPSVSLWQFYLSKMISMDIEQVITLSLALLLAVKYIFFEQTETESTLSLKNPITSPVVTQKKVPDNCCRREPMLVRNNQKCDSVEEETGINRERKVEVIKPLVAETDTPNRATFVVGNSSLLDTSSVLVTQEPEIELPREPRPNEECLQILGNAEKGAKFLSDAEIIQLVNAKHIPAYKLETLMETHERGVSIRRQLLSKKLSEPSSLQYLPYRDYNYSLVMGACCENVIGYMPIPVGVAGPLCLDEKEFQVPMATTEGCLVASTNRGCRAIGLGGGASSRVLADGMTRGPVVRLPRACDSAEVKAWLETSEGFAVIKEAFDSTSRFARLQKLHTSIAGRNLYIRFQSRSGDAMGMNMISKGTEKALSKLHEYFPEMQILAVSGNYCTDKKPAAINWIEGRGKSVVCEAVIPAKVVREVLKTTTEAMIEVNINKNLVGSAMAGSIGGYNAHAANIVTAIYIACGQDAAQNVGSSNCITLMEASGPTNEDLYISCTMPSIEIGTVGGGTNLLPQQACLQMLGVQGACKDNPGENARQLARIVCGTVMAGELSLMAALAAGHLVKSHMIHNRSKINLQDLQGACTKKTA
Test: Inhibition of human HMGR catalytic domain using 800 uM HMG-CoA as substrate measured every 20 secs for 10 mins
In short: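 Dose-response format of the kit assay: 1× buffer, NADPH, 800 μM HMG-CoA, graded compound concentrations, human HMGR catalytic domain 0.6 μM final added to start at 37 °C. A340 read every 20 s over 10 min; percent inhibition of control used to derive IC50; n = 3.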

IC50: 400 nM
Structure (SMILES): CC[C@H](C)C(=O)O[C@H]1C[C@H](O)C=C2C=C[C@H](C)[C@H](CC[C@@H](O)C[C@@H](O)CC(=O)O)[C@H]21 [PRAVASTATIN]

— ChEMBL document CHEMBL3853309, “Lovastatin Analogues from the Soil-Derived Fungus Aspergillus sclerotiorum PSU-RSPG178” (J Nat Prod, 2016)
